Reference: EP2710378B1, “METHOD TO PROGNOSE VIRAL INFECTION BY MEASURING T CELL RESPONSE OR AUTO-ANTIBODIES TO APOPTOTIC EPITOPES” (Università degli Studi di Roma "La Sapienza", priority 2011, dated 2012)
Read-outs that look alike come from different tables or passages of the source.

What was measured:
A*0206 = A*0206 (Homo sapiens, UniProt P04439, D140Y/D185E/D98H/E176V/E277Q/F33Y/G131W/G231S/I119V/I121R/I166T/I218V/L300P/L318F/N151K/N90K/P208A/P217A/Q86G/Q94H/R138H/R169H/T345S); assay: HLA-A2 binding affinity of synthetic peptides (A*0206); conditions: read-out: Binding capacity (IC50§ nM) A*0206
A*6802 = A*6802 (Homo sapiens, UniProt P04439, A269V/D140Y/D185E/E176V/E277Q/E87N/F33Y/G231S/I121R/I166T/I218V/L180W/L300P/L318F/N151K/P208A/P217A/Q86R/R138H/R169H/S129P/T345S/V36M); assay: HLA-A2 binding affinity of synthetic peptides (A*6802); conditions: read-out: Binding capacity (IC50§ nM) A*6802
A*0202 = A*0202 (Homo sapiens, UniProt P04439, D140Y/D185E/D98H/E176V/E277Q/G131W/G231S/I119L/I121R/I166T/I218V/L180W/L300P/L318F/N151K/N90K/P208A/P217A/Q67R/Q86G/Q94H/R138H/R169H/T345S); assay: HLA-A2 binding affinity of synthetic peptides (A*0202); conditions: read-out: Binding capacity (IC50§ nM) A*0202
A*0203 = A*0203 (Homo sapiens, UniProt P04439, A173T/D140Y/D185E/D98H/E277Q/G131W/G231S/I119V/I121R/I166T/I218V/L180W/L300P/L318F/N151K/N90K/P208A/P217A/Q86G/Q94H/R138H/R169H/T345S); assay: HLA-A2 binding affinity of synthetic peptides (A*0203); conditions: read-out: Binding capacity (IC50§ nM) A*0203
A*0201 = A*0201 (Homo sapiens, UniProt P04439, D140Y/D185E/D98H/E176V/E277Q/G131W/G231S/I119V/I121R/I166T/I218V/L300P/L318F/N151K/N90K/P208A/P217A/Q86G/Q94H/R138H/R169H/T345S); assay: HLA-A2 binding affinity of synthetic peptides (A*0201); conditions: read-out: Binding capacity (IC50§ nM) A*0201
HLA-A2 = format: binding, Human; conditions: number of the five alleles A*0201, A*0202, A*0203, A*0206, A*6802 bound
[1] = HLA-A2 binding affinity of synthetic peptides, 50% inhibitory nanomolar concentration, dash = IC50 >50000 nM
[2] = 50% inhibitory nanomolar concentration

Row | Structure (SMILES) | IC50 (A*0206; cells printed as dash) [nM] | IC50 (A*6802; cells printed as dash) [nM] | IC50 (A*0202; cells printed as dash) [nM] | IC50 (A*0203; cells printed as dash) [nM] | IC50 (A*0201; cells printed as dash) [nM] | IC50 (A*6802; [1]) [nM] | IC50 (A*0202; [1]) [nM] | Alleles bound (HLA-A2) | IC50 (A*0206; [2]) [nM] | IC50 (A*0203; [2]) [nM] | IC50 (A*0201; [2]) [nM]
1 | CC[C@H](C)[C@H](NC(=O)[C@@H](NC(=O)[C@H](CCCNC(=N)N)NC(=O)[C@H](CC(=O)O)NC(=O)[C@H](CCC(=O)O)NC(=O)[C@H](CO)NC(=O)CNC(=O)[C@H](CCC(=O)O)NC(=O)[C@H](CC(C)C)NC(=O)[C@@H]1CCCN1)[C@@H](C)CC)C(=O)O [compound 26] | > 50000 | > 50000 | > 50000 | > 50000 | > 50000 | – | – | – | – | – | –
2 | CC(C)C[C@H](NC(=O)[C@H](CCCNC(=N)N)NC(=O)[C@H](Cc1c[nH]c2ccccc12)NC(=O)[C@H](Cc1c[nH]c2ccccc12)NC(=O)[C@H](CCC(N)=O)NC(=O)[C@H](Cc1c[nH]c2ccccc12)NC(=O)[C@H](CC(N)=O)NC(=O)[C@H](C)NC(=O)[C@H](CC(C)C)NC(=O)[C@@H](N)CCCCN)C(=O)O [compound 126] | – | – | – | – | – | > 50000 | 54 | 2 | – | – | –
3 | CC(C)C[C@H](NC(=O)[C@H](CCCCN)NC(=O)[C@@H](NC(=O)[C@@H](NC(=O)[C@H](CCCCN)NC(=O)[C@H](CC(=O)O)NC(=O)[C@H](C)NC(=O)[C@H](CC(C)C)NC(=O)[C@@H](N)CCC(=O)O)C(C)C)[C@@H](C)O)C(=O)O [compound 94] | – | – | – | – | – | – | – | 3 | 38800 | 114 | 2510
